Assay results published in paper PMC7559746 (Pharmaceutics, 2020).

Set-up: AUC0–12 h (CV%) geomean: unit not given beside the values
[1] = plasma, relative difference of geometric means
[2] = plasma, sorafenib monotherapy (day 1)

In the case of sorafenib-glucuronide, the “bioequivalence, with probenecid vs sorafenib monotherapy” value (bioequivalent when 90% CI of ratio of geometric means is within 80% and 125%) is reported as “bioequivalence”, the “RD sorafenib monotherapy vs. sorafenib + probenecid (90% CI), AUC0–12 h” value [1] is reported as −5.5% (−18.0% to 8.9%) and the “RD sorafenib monotherapy vs. sorafenib + probenecid (90% CI), Cmax” value [1] is reported as −6.1% (−21.7% to 12.7%). The “RD sorafenib monotherapy vs. sorafenib + probenecid (90% CI), Ctrough” value [1] was −8.3% (−21.3% to 6.9%), the “Cmax (CV%) geomean” value [2] was 12,704 (51) μg/mL and the “Ctrough (CV%) geomean” value [2] was 9159 (65) μg/mL. The “AUC0–12 h (CV%) geomean” value (plasma, sorafenib monotherapy (day 1), dose-corrected, n = 16) was 120,660 (55), the “increase of the ratio of sorafenib-glucuronide to sorafenib” value (sorafenib co-administered with probenecid vs monotherapy) was 29% and the “decrease of geometric mean plasma AUC0–12 h with concomitant probenecid” value (vs sorafenib alone, decrease) was 5.5%. For the same substance, the “decrease of plasma Cmax with concomitant probenecid” value (vs sorafenib alone, decrease) was 6.1%.
